Laboratory results as given in ChEMBL document CHEMBL3785058, “Design and synthesis of novel 3-sulfonylpyrazol-4-amino pyrimidines as potent anaplastic lymphoma kinase (ALK) inhibitors” (Bioorg Med Chem Lett, 2016).
Activity calls are given as the source filed them. The calls are words filed in the database; no cut-off is given here.

System: NCI-H2228
Conditions: Homo sapiens

SMILES: Cc1cc(Nc2ncc(Cl)c(Nc3ccccc3S(=O)(=O)C(C)C)n2)c(OC(C)C)cc1C1CCNCC1
- TGI: Active
